Test results from PMC7587369, “Antitumor Activity of Ruthenium(II) Terpyridine Complexes towards Colon Cancer Cells In Vitro and In Vivo” (Molecules, 2020).

Assay: Systemic toxicity in CT26 tumor-bearing mice (body and organ weight, serum biochemistry, histopathology)
Conditions: 2 mg/kg i.p.

O=C1[O][Pt]2([NH][C@@H]3CCCC[C@H]3[NH]2)[O]C1=O [Oxaliplatin, oxaliplatin, reference compound]
serum concentration of urea compared to saline-treated mice: did not affect
